## Apparent affinities of Ab-95 variants for a coronavirus HR2 peptide

Source: Engelhart et al. 2022 (doi:10.1038/s41597-022-01779-4), MIT Lincoln Laboratory and A-Alpha Bio; data file from the FLAb repository.

Target peptide (SARS-CoV-2 spike, HR2 region): PDVDLGDISGINAS

Parent: Ab-95, a human scFv built as VH, the linker GGGGSGGGGSGGGGS, VL. Only the CDRs of the light chain vary.
VH: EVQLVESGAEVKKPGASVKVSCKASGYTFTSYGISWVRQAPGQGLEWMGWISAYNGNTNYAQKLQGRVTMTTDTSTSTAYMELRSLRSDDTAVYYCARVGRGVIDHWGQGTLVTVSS
VL: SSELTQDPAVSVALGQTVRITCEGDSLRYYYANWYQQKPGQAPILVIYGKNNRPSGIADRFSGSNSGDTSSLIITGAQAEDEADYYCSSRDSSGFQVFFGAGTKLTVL

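The parent was found by panning a naive human phage display library on the peptide. Library AAYL52 holds single substitutions and randomly drawn double and triple substitutions in the CDRs. The scFvs were displayed on barcoded MATa yeast, the peptide on MATalpha yeast. The frequency of each diploid, read from paired DNA barcodes, reflects how well the two displayed proteins bind. Each replicate has its own calibration line, from reference interactions of the BCL2 family. Each pool was mated in three replicate cultures.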

Positions count from residue 1 of the parent VL; G24N puts N in place of G. Values are log10 of the apparent Kd in nM; lower means stronger binding. Averages over replicates are reported, and they cover detected replicates only. A pair that was not seen in that replicate is written "n.d."; this usually means weak binding, but a binder can also be missed. Nonspecific signal, from three strains lacking the peptide, appeared in 28% of pairings of library AAYL52, centred on 3.91 (5% of these signals below 2.90); values are not corrected for it. For each scFv, signals with the empty controls are counted beside the result, with their mean in brackets. Parent in this assay: reference entry 2.31, copy in this library 2.25.

| changes | log10 Kd (nM) by replicate | mean log10 Kd (nM) | control signals |
|---|---|---|---|
| G24N D25P N33G | n.d. / n.d. / n.d. | n.d. | 3/9 (4.22) |
| N33Y D91F | 1.52 / 1.73 / 1.07 | 1.44 | 2/9 (2.94) |
| S26F N52K D91E | n.d. / 4.07 / 4.19 | 4.13 | 1/9 (3.46) |
| R28P G49N S88P | 2.60 / 3.56 / 3.79 | 3.32 | 5/9 (4.04) |
| G24A S88P G94F | n.d. / n.d. / 4.30 | 4.30 | 1/9 (3.20) |
| Y31I F95N | n.d. / 2.96 / 3.21 | 3.08 | 1/9 (4.64) |
| Y29F N33S V97I | 3.16 / n.d. / 4.25 | 3.71 | 3/9 (3.93) |
| Y30E R53E S88V | 3.70 / n.d. / 3.58 | 3.64 | 4/9 (3.79) |
| N33P G94Q F95G | 3.39 / n.d. / n.d. | 3.39 | 6/9 (4.06) |
| D25E Y31C S92H | 1.85 / 1.78 / 1.44 | 1.69 | 2/9 (3.83) |
| E23G N52L S88F | 5.03 / 3.30 / 3.51 | 3.95 | 2/9 (3.40) |
| A32S V97F | 2.34 / 3.06 / 2.34 | 2.58 | 4/9 (3.83) |
| G49I R90A V97G | 3.60 / n.d. / n.d. | 3.60 | 1/9 (4.10) |
| D25Y R53A F98K | n.d. / 5.25 / n.d. | 5.25 | 2/9 (3.38) |
| E23R S26T Q96N | 2.69 / 2.38 / 2.61 | 2.56 | 2/9 (3.59) |

The remaining entries, values ahead:

| log10 Kd (nM) by replicate | mean log10 Kd (nM) | control signals | changes |
|---|---|---|---|
| 2.59 / 2.87 / 2.57 | 2.68 | 4/9 (4.01) | N52F D91S |
| n.d. / n.d. / n.d. | n.d. | 0/9 | G49M S92M |
| 3.27 / n.d. / n.d. | 3.27 | 1/9 (3.98) | S26T L27G D91C |
| 1.98 / 2.01 / 1.62 | 1.87 | 2/9 (3.76) | Y30W A32N K50G |
| 3.64 / 3.19 / n.d. | 3.41 | 3/9 (3.71) | D25A S26M N52D |
| 0.62 / 0.60 / -0.10 | 0.38 | 4/9 (3.63) | Y30Q S55N S92A |
| 4.03 / 2.92 / 3.28 | 3.41 | 1/9 (3.41) | R28M S92A S93K |
| 2.67 / 2.83 / 2.77 | 2.76 | 1/9 (4.76) | S26F Y30V N51G |
| 3.33 / n.d. / n.d. | 3.33 | 1/9 (3.51) | G24K G49P V97S |
| 2.64 / 2.70 / 2.12 | 2.48 | 4/9 (4.25) | E23I K50D S93D |
| 3.80 / 3.49 / 3.71 | 3.66 | 2/9 (3.58) | G49P S92A |
| 3.11 / n.d. / 3.04 | 3.07 | 3/9 (3.53) | R90A G94F F98T |
| 3.09 / 3.11 / 2.87 | 3.03 | 0/9 | D25M A32V S93Y |
| 3.65 / 4.22 / n.d. | 3.93 | 1/9 (3.71) | G24L D91K S92D |
| 3.79 / 3.40 / n.d. | 3.60 | 0/9 | S26H L27C K50V |

The last 3 entries again:

| changes | log10 Kd (nM) by replicate | mean log10 Kd (nM) | control signals |
|---|---|---|---|
| D25M A32V S93Y | 3.09 / 3.11 / 2.87 | 3.03 | 0/9 |
| G24L D91K S92D | 3.65 / 4.22 / n.d. | 3.93 | 1/9 (3.71) |
| S26H L27C K50V | 3.79 / 3.40 / n.d. | 3.60 | 0/9 |